Earlier results in patent US7422793B2, “Non-toxic corrosion-protection rinses and seals based on rare earth elements” (University of Dayton, priority 2002, dated 2008).
In brackets after ≈: the same amount, converted by molar mass.

Conditions: cerium or praseodymium source; at or near 25° C. and at or near pH 7; cited from earlier work

Molecule	Solubility in Water
Praseodymium (III) perchlorate	2.2 × 10^0 mole/L

Same assay, conditions: oxidizer sources; at or near 25° C. and at or near pH 7; cited from earlier work

Molecule	Solubility in Water
O=NO	13.5 mol/L (≈ 635 mg/mL)
Ammonium permanganate	0.577 mol/L
Barium chlorate	0.85 mol/L
Barium perchlorate	5.1 × 10^0 mole/L
Potassium chlorate	0.58 mol/L
Potassium perchlorate	0.36 mol/L
